# In patent US6348445B1, “Biologically active peptides with reduced toxicity in animals and a method for preparing same” (priority 1992, dated 2002):
# Like-named read-outs stand apart in the source and are kept apart here.
# Tests used:
# S. aureus ATCC 29213 = type: cell-based
# [1] = MTD of repeat-dose intraperitoneal administration; type: in vivo, SCID mice; conditions: for MTD at 504 h: male, SCID (Fox Chase C.B-17/IcrTac-scidfDF), mouse, in vivo, ip
# Experimental: Determinations of a maximal tolerated dose (MTD) of repeat-dose intraperitoneal (i.p.) administration of MSI-344 or MSI-1857 in 60 SCID mice were done. Mice were injected with various doses of MSI-344 or MSI-1857 twice or thrice per week. Survival and body weight were monitored. On a twice per week dosing schedule, the MTDs of MSI-344 and MSI-1857 were 12 and 134 mg/kg/week, respectively. […] On a thrice per week dosing schedule, no deaths occurred in any groups, with high dose groups of MSI-344 and MSI-1857 receiving 90 mg/kg/week and […], respectively. A transient body weight loss was seen after initial dosing in most MSI-344 and MSI-1857 groups. No body weight loss greater than 6% occurred in any group on the thrice per week dosing schedule.
# To determine estimates of MTDs of MSI-344 and MSI-1857 when administered intraperitoneally on repeat-dose regimens in SCID mice. The selection of SCID mice was based on the future plans of using this strain as host for xenograft human tumor efficacy models, and a pre-requisite for determining MTD for chronic administration that may be used during the efficacy model.
# SCID mice are immunocompromised and therefore they were housed and handled in sterile environments. They had access to sterile water and sterilized chow ad lib.
# A 1 mg/mL solution of MSI-344 was made in saline (0.9% sodium chloride injection USP, Abbott, North Chicago, Ill.) corrected for peptide content. Solutions of MSI-344 at concentrations of 0.6, 0.3, and 0.1 mg/mL were made by diluting the 1 mg/mL solution using saline as diluent. A 10 mg/mL solution of MSI-1857 was made in saline.
# Solutions of MSI-1857 at concentrations of 6.7, 3.3, 3, 2, and 1 mg/mL were made by diluting the 10 mg/mL solution using saline as diluent.
# Mice (four mice per dose group) were intraperitoneally administered MSI-344 or MSI-1857 using an injection volume of 10 mL/kg of the appropriate solution concentration on a twice per week (Groups 1 through 7) or thrice per week (Groups 8 through 15) dosing schedule every week for 20 weeks. Survival was monitored daily and body weights were recorded three times per week An interim analysis was performed at 3 weeks and the results of this interim analysis is presented in the present report.
# [2] = tested on: E. coli ATCC strain 25922; assay: Minimal Inhibitory Concentration, microtiter broth dilution; type: cell-based
# Description: Table I, which follows, indicates the Minimal Inhibitory Concentration (MIC) in […] of various peptides against S.aureus strain ATCC 25923(S), P. aeruginosa strain ATCC 27853(P), E. coli ATCC strain 25922(E), and C. 4albicans (CA). […] The peptides are unsubstituted at the N-terminal; substituted with an acetyl group at the N-terminal, as indicated by Ac-; substituted with an octanoyl group at the N-terminal, as indicated by Oct-; substituted with spinogosine, as indicated by Sph-; substituted with a succinyl group, as indicated by Suc-; substituted with a hexanoyl group, as indicated by Hex-; substituted with a heptanoyl group, as indicated by Hep-; substituted with a valeryl group, as indicated by Val-; substituted with a myristryl group, as indicated by Myr-; or substituted with an ibuprofyl group, as indicated by Ibu-; […]
# The stock peptide solution was diluted in serial dilutions (1:2) down the wells of a microtiter plate so that the final concentrations of peptides in the wells were 0.25, 0.50, 1, 2, 4, 8, 16, 32, 64, 128 and 256 μg/ml. […] The plates were incubated for 16-20 hours at 37° C., and the minimal inhibitory concentration (MIC) for each peptide was determined. […]
# The in vitro anti-microbial activities of the methane sulfonate derivatives were determined according to the methods described in Examples 1 and 2. […]
smiles,measurement,setting,value
CC[C@H](C)[C@H](NC(=O)CNCS(=O)(=O)O)C(=O)NCC(=O)N[C@@H](CCCCNCS(=O)(=O)O)C(=O)N[C@@H](Cc1ccccc1)C(=O)N[C@@H](CC(C)C)C(=O)N[C@@H](CCCCNCS(=O)(=O)O)C(=O)N[C@@H](CCCCNCS(=O)(=O)O)C(=O)N[C@@H](C)C(=O)N[C@@H](CCCCNCS(=O)(=O)O)C(=O)N[C@@H](CCCCNCS(=O)(=O)O)C(=O)N[C@@H](Cc1ccccc1)C(=O)NCC(=O)N[C@@H](CCCCNCS(=O)(=O)O)C(=O)N[C@@H](C)C(=O)N[C@@H](Cc1ccccc1)C(=O)N[C@H](C(=O)N[C@@H](CCCCNCS(=O)(=O)O)C(=O)N[C@H](C(=O)N[C@@H](CC(C)C)C(=O)N[C@@H](CCCCNCS(=O)(=O)O)C(=O)N[C@@H](CCCCNCS(=O)(=O)O)C(=O)O)[C@@H](C)CC)C(C)C [MSI-1857],MIC S. aureus ATCC 29213,S. aureus ATCC 29213,128 µg/mL
same,effect of initial dosings on body weight,[1]; all surviving groups except the low dose group on the thrice-per-week schedule,dose-dependent transient body weight loss
same,"MTD, thrice per week dosing schedule","[1]; i.p., SCID mice, interim analysis at 3 weeks",greater than or equal to 90 mg/kg/week
same,MTD at 504 h,"[1]; SCID mice, interim analysis at 3 weeks, read-out: MTD, thrice per week dosing schedule",≥ 12.9 mg/kg/day
same,MTD at 504 h,"[1]; SCID mice, interim analysis at 3 weeks, read-out: MTD, twice per week dosing schedule (converted)",19.1 mg/kg/day
same,fold increase in safety index compared to MSI-344,[1]; twice per week i.p. dosing,11 fold
same,MIC E. coli ATCC 25922,[2],32 µg/mL
